This test has as its target T1, serotonin-1A(5-HT1A) receptors (Rattus norvegicus, UniProt P19327).
T1 construct: The frontal cortex was dissected out; from tissue; host or cells: rat frontal cortex homogenate (Chbb:Thom strain)
As to the kind of experiment: affinity for serotonin-1A (5-HT1A) receptors by displacement experiments with [3H]-8-OH-DPAT (rat frontal cortex). Format: binding. The protocol:
3. […] (Method of S. J. Peroutka, J. Neurochem. 47, 529 (1986), modified according to H. Gozlan et al., J. Receptor Research 7. 195 (1987))
A male rat (Chbb:Thom strain weighing about 200 g) was decapitated. The brain was removed and placed in ice-cold buffer (50 mmol/1 tris-HCl plus hydrochloric acid ad pH =7.4 at ambient temperature). The frontal cortex was dissected out; its moist weight was determined. It was homogenised in 40 times its volume of buffer (Polytron, position 6, 10 seconds), then centrifuged for 20 minutes at 45,000×g in the refrigerated centrifuge. The pellet was washed in 100 times its volume of buffer and centrifuged again as described above. The resulting pellet was resuspended in 40 times its volume of buffer and pre-incubated for 10 minutes at 37° C. Sixty times the volume of buffer were added and centrifuging was carried out as above. The resulting pellet was washed with 100 times the volume of buffer and centrifuged as above. The pellet was resuspended in buffer (0.8 ml/10 mg) and briefly homogenised in the Polytron. This homogenised tissue was cooled in ice until ready for incubation.
Incubation was stopped by rapid filtering through Whatman GF/B filters; rinsing was carried out twice, each time with 5 ml of ice cold buffer (Filter Prep, Messrs. Ismatec). The radioactivity of the filters was determined by liquid scintillation measurement. […]

Protein sequences, listed by entry. Tags and fused reporters are not part of them.
UniProt P19327, whole entry: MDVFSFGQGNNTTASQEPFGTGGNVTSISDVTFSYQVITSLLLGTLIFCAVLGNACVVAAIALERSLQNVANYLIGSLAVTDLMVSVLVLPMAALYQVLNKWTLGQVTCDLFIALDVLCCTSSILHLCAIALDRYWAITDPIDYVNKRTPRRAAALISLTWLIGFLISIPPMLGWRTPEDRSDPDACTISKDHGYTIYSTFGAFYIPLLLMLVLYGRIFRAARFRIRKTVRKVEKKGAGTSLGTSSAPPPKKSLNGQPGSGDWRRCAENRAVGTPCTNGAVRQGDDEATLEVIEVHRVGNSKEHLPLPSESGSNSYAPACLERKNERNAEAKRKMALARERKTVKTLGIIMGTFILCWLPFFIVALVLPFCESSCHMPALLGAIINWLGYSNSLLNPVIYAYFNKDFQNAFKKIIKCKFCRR

Each structure is given as a SMILES string.

With `NCCc1c[nH]c2ccc(O)cc12` [Serotonin, reference compound], affinity was put at a Ki of 1.1 nM.

Values taken from patent publication US5068325A, “4,5,7,8-tetrahydro-6H-thiazolo[5,4-d]azepines, their preparation and their use as pharmaceutical compositions” (priority 1988, dated 1991).
